The IC50 is the midpoint of a concentration-inhibition curve. Read a low IC50 as greater potency in that assay.

We go through 1 compound from ChEMBL document CHEMBL1143267, “Type II NADH dehydrogenase of the respiratory chain of Plasmodium falciparum and its inhibitors” (Bioorg Med Chem Lett, 2009).

In experiment [1] the test system is Plasmodium falciparum. The experiment can be described thus: Antimalarial activity against Plasmodium falciparum DD2 expressing Saccharomyces cerevisiae DHOD by [3H]hypoxanthine uptake. Type of experiment: functional, organism-based. In a few lines:
(§1)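 Asexual parasite proliferation measured by [3H]-hypoxanthine incorporation dose–effect curves, in parental DD2 and a transgenic DD2 line expressing yeast cytoplasmic DHOD. IC50 from three independent experiments. Antimycin A, a mixture of A1–A4, expressed in mg/mL.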

Experiment [2] has as its system Plasmodium falciparum. The experiment can be described thus: Antimalarial activity against Plasmodium falciparum DD2 by [3H]hypoxanthine uptake. Type of experiment: functional, organism-based. An outline of the steps:
as §1

Experiment [3] concerns the target T1, Dihydroorotate dehydrogenase (fumarate) (Saccharomyces cerevisiae S288c, UniProt P28272).
T1 sequence (P28272 whole entry): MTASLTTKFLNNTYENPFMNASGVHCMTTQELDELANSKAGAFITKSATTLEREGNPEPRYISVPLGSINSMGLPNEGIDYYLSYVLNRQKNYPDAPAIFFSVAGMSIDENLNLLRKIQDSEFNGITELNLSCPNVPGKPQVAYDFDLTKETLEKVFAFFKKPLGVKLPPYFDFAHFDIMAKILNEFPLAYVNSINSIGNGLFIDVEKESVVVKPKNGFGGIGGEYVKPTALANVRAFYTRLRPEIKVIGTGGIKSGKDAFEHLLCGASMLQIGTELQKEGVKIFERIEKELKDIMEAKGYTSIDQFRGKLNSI
The experiment can be described thus: Inhibition of Saccharomyces cerevisiae DHOD. In a few lines: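 Yeast cytoplasmic type I DHOD, assayed DCIP-coupled with 500 µM L-dihydroorotate and 115 µM fumarate as acceptor. Compounds tested up to 10 µM. IC50 from three independent experiments.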

Structures are written as SMILES.

Regarding `c1ccc2c(c1)[I+]c1ccccc1-2` [DIPHENYLENEIODONIUM CHLORIDE], the IC50 was 3000 nM in experiment [1], 2700 nM in experiment [2] and above 10000 nM in experiment [3].
